# Earlier results, collected in patent US12102628B2, “Composition and methods for the treatment of myopia” (Seinda Pharmaceutical Guangzhou Corporation, priority 2017, dated 2024).
substance,measurement,value
Tiotropium,logP,−1.8
